Experimental data: patent publication US7778782B1, “Peroxisome proliferation activated receptor alpha (PPARα) signatures” (priority 2002, dated 2010)

System: PPARα response signature
Experiment: Signature Projection Score (SPS) of liver gene expression against the PPARα response signature
Settings: rat liver expression data in DrugMatrix database compared with PPARα response signature; normalised so highest training treatment = 100; *= p < 0.01, **= p < 0.001

Structure (SMILES): CC(C)OC(=O)C(C)(C)Oc1ccc(C(=O)c2ccc(Cl)cc2)cc1 [FENOFIBRATE]
- SPS (Sequence Projection Score): 100**
